Measurements taken from article PMC11259064, “Enhanced binding of guanylated poly(A) RNA by the LaM domain of LARP1” (RNA Biology, 2024).

Target: T1, human LARP1 LaM domain (residues 323–410) (Homo sapiens, UniProt Q6PKG0)
T1 construct: human LARP1 LaM domain (residues 323–410); made in house; host or cells: E. coli
Experiment: Isothermal titration calorimetry (ITC) of RNA ligands binding LARP1 (323-410)
Conditions: 20°C, LaM 20-30 µM in cell, RNA 300 µM in syringe, single set of identical sites
Description: ITC experiments were performed on the VP-ITC titration calorimeter (Malvern Instruments Ltd) except where noted. […] All experiments were carried out at 20°C with 29 injections of 10 µl. Results were analysed using ORIGIN software (MicroCal) and fitted to a binding model with a single set of identical sites, except where noted.

5´-APAPAPAPGPA-3´ [AAAAGA]
Kd: 0.08 µM
